## Yeast mating assay 2: variants of the scFv Ab-95

Data: MIT Lincoln Laboratory AlphaSeq set, Engelhart et al. 2022, doi:10.1038/s41597-022-01779-4, as distributed in FLAb.

The target is the same throughout: PDVDLGDISGINAS, from the HR2 region of SARS-CoV-2 spike.

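Phage display of a naive human antibody library on the peptide gave the parent. Variants in AAYL52 differ from the parent at up to three CDR positions; double and triple changes were sampled at random. AlphaSeq pools MATa yeast showing the antibodies with MATalpha yeast showing the peptide. The frequency of each diploid, read from paired DNA barcodes, reflects how well the two displayed proteins bind. Scores were corrected for input abundance and mapped to Kd with protein pairs of known affinity run in the same pool. Mating was done three times.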

Parent: Ab-95, a human scFv built as VH, three GGGGS repeats, VL. Only the CDRs of the light chain vary.
VH: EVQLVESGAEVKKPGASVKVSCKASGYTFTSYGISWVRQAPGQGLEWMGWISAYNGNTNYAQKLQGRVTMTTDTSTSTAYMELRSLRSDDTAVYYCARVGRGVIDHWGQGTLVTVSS
VL: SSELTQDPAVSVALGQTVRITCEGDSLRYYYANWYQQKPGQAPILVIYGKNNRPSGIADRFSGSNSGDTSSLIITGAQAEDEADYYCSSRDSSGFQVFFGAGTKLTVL

The parent's light chain CDRs are EGDSLRYYYAN, GKNNRPS, SSRDSSGFQVF; each variant's own CDRs replace them letter for letter. Numbers give log10(Kd / nM), so 0 is 1 nM and 3 is 1 µM. Smaller is tighter. "ND" marks a missing value. The strain was present, yet no cells mated with the target were sequenced in that replicate, which points to weak or no binding. As a blank, each scFv also met three strains without target: over library AAYL52, 28% of these pairings were detected, typically at 3.91 and seldom below 2.90. For each scFv, signals with the empty controls are counted beside the result, with their mean in brackets. In this assay the parent's reference entry averaged 2.31; its copy inside this library read 2.25.

{"CDR-L1": "EGDSLRYRYAN", "CDR-L2": "GKNNRPS", "CDR-L3": "SSRDSSGFEVF", "log10 Kd, replicates": "2.48 2.10 2.16", "empty controls": "2 of 9 (3.96)"}
{"CDR-L1": "EGWSLRYRYAN", "CDR-L2": "GKTNRPS", "CDR-L3": "SSRDSSGFQVF", "log10 Kd, replicates": "3.42 3.29 3.46", "empty controls": "4 of 9 (3.79)"}
{"CDR-L1": "EGDMLRQYYAN", "CDR-L2": "GKDNRPS", "CDR-L3": "SSRDSSGFQVF", "log10 Kd, replicates": "3.25 4.35 2.87", "empty controls": "1 of 9 (3.59)"}
{"CDR-L1": "EEDSLRYYYAN", "CDR-L2": "GKNNKPS", "CDR-L3": "SSRDMSGFQVF", "log10 Kd, replicates": "ND ND ND", "empty controls": "1 of 9 (3.61)"}
{"CDR-L1": "EGDSLRYYYAN", "CDR-L2": "GKNNRPH", "CDR-L3": "MSRDSCGFQVF", "log10 Kd, replicates": "2.18 2.17 2.57", "empty controls": "4 of 9 (4.07)"}
{"CDR-L1": "EGNSLRYYYAN", "CDR-L2": "GKNNRLS", "CDR-L3": "SSRESSGFQVF", "log10 Kd, replicates": "ND 4.74 ND", "empty controls": "3 of 9 (4.30)"}
{"CDR-L1": "EGDSLRYYYAN", "CDR-L2": "GKWNRPS", "CDR-L3": "SSYDSSGFHVF", "log10 Kd, replicates": "ND 5.73 4.25", "empty controls": "6 of 9 (4.06)"}
{"CDR-L1": "ENDSLRYQYAN", "CDR-L2": "GKNNRPS", "CDR-L3": "ESRDSSGFQVF", "log10 Kd, replicates": "3.17 4.28 2.70", "empty controls": "4 of 9 (3.81)"}
{"CDR-L1": "EGVSLRYYYAN", "CDR-L2": "GKNNRPF", "CDR-L3": "SERDSSGFQVF", "log10 Kd, replicates": "3.66 3.47 2.30", "empty controls": "6 of 9 (4.12)"}
{"CDR-L1": "EGDSLFYYYAN", "CDR-L2": "GKNNRPS", "CDR-L3": "SMRDVSGFQVF", "log10 Kd, replicates": "3.38 3.43 2.65", "empty controls": "4 of 9 (3.89)"}
{"CDR-L1": "EGQSLRYYYAN", "CDR-L2": "GKFNRPS", "CDR-L3": "SSRDSSGFQGF", "log10 Kd, replicates": "ND 3.67 ND", "empty controls": "3 of 9 (4.39)"}
{"CDR-L1": "EGDSLRYLYAN", "CDR-L2": "GKNNRNS", "CDR-L3": "SSHDSSGFQVF", "log10 Kd, replicates": "ND ND ND", "empty controls": "1 of 9 (3.43)"}
{"CDR-L1": "EGWSARYYYAN", "CDR-L2": "AKNNRPS", "CDR-L3": "SSRDSSGFQVF", "log10 Kd, replicates": "4.25 4.04 ND", "empty controls": "3 of 9 (3.60)"}
{"CDR-L1": "EGDSLRYYVAN", "CDR-L2": "GMNNRPS", "CDR-L3": "SSRDSSGFQVF", "log10 Kd, replicates": "3.38 3.05 2.27", "empty controls": "2 of 9 (2.92)"}
{"CDR-L1": "EGDPLTYYYAN", "CDR-L2": "GMNNRPS", "CDR-L3": "SSRDSSGFQVF", "log10 Kd, replicates": "ND 3.01 ND", "empty controls": "1 of 9 (2.60)"}
{"CDR-L1": "EGDSLRYYYAN", "CDR-L2": "GENNHPS", "CDR-L3": "SSRDSSGFTVF", "log10 Kd, replicates": "3.56 3.06 4.13", "empty controls": "2 of 9 (4.50)"}
{"CDR-L1": "EGDSTRYYYAN", "CDR-L2": "GKNNRPS", "CDR-L3": "SSRDCSGFQVH", "log10 Kd, replicates": "5.53 2.86 3.11", "empty controls": "2 of 9 (3.61)"}
{"CDR-L1": "EGDSLRYYYAN", "CDR-L2": "GKNNRPS", "CDR-L3": "SSRDLSGFRVF", "log10 Kd, replicates": "2.25 2.33 1.74", "empty controls": "4 of 9 (3.77)"}
{"CDR-L1": "EGDSLRYYYAN", "CDR-L2": "GKNNRPS", "CDR-L3": "FSRDSSGFQVE", "log10 Kd, replicates": "ND ND ND", "empty controls": "2 of 9 (3.26)"}
{"CDR-L1": "EQDSLRYYYAN", "CDR-L2": "GKNDRPS", "CDR-L3": "SSRDDSGFQVF", "log10 Kd, replicates": "2.03 2.17 2.14", "empty controls": "4 of 9 (3.98)"}
{"CDR-L1": "EGDSLRYYYAN", "CDR-L2": "GKNNRPS", "CDR-L3": "SSREVSMFQVF", "log10 Kd, replicates": "2.85 4.27 3.30", "empty controls": "6 of 9 (3.61)"}
{"CDR-L1": "EGDSLIYYYAN", "CDR-L2": "GKNNIPS", "CDR-L3": "SSRDSSGFQVF", "log10 Kd, replicates": "3.84 3.58 3.86", "empty controls": "1 of 9 (2.71)"}
{"CDR-L1": "EGDSLRYYYFN", "CDR-L2": "GKNNRPS", "CDR-L3": "CSRWSSGFQVF", "log10 Kd, replicates": "3.22 3.72 ND", "empty controls": "4 of 9 (3.57)"}
{"CDR-L1": "EGESLRYYYAN", "CDR-L2": "GKYNRES", "CDR-L3": "SSRDSSGFQVF", "log10 Kd, replicates": "3.19 2.88 3.35", "empty controls": "3 of 9 (4.17)"}
{"CDR-L1": "EGDSLRYYYAN", "CDR-L2": "GKNYRPA", "CDR-L3": "SSRNSSGFQVF", "log10 Kd, replicates": "3.52 ND ND", "empty controls": "1 of 9 (4.23)"}
{"CDR-L1": "EGDSLRYNYNN", "CDR-L2": "GKNNRPS", "CDR-L3": "SLRDSSGFQVF", "log10 Kd, replicates": "2.78 1.81 1.26", "empty controls": "1 of 9 (3.70)"}
{"CDR-L1": "EGNSLRYYNAN", "CDR-L2": "GKNNRPS", "CDR-L3": "SSCDSSGFQVF", "log10 Kd, replicates": "ND ND ND", "empty controls": "1 of 9 (3.67)"}
{"CDR-L1": "EGDSLTYGYAN", "CDR-L2": "GKNNRPS", "CDR-L3": "SSRDSSGFQQF", "log10 Kd, replicates": "2.54 2.29 2.69", "empty controls": "4 of 9 (4.18)"}

The first 3 variants above that were never detected:

{"CDR-L1": "EEDSLRYYYAN", "CDR-L2": "GKNNKPS", "CDR-L3": "SSRDMSGFQVF", "log10 Kd, replicates": "ND ND ND", "empty controls": "1 of 9 (3.61)"}
{"CDR-L1": "EGDSLRYLYAN", "CDR-L2": "GKNNRNS", "CDR-L3": "SSHDSSGFQVF", "log10 Kd, replicates": "ND ND ND", "empty controls": "1 of 9 (3.43)"}
{"CDR-L1": "EGDSLRYYYAN", "CDR-L2": "GKNNRPS", "CDR-L3": "FSRDSSGFQVE", "log10 Kd, replicates": "ND ND ND", "empty controls": "2 of 9 (3.26)"}